In article PMC10756763, “Biosynthesis, herbivore induction, and defensive role of phenylacetaldoxime glucoside” (Plant Physiology, 2023):

Legend:
CYP79A207 = biological target: T1, CYP79A207 (Miconia microphysca, UniProt A0AA50KHK6); assay: aldoxime formation by yeast microsomes, LC-MS/MS; assay type: biochemical; conditions: 1 mM substrate, 1 mM NADPH, 75 mM sodium phosphate pH 7.0, 25 °C
T1 sequence (A0AA50KHK6 1-555): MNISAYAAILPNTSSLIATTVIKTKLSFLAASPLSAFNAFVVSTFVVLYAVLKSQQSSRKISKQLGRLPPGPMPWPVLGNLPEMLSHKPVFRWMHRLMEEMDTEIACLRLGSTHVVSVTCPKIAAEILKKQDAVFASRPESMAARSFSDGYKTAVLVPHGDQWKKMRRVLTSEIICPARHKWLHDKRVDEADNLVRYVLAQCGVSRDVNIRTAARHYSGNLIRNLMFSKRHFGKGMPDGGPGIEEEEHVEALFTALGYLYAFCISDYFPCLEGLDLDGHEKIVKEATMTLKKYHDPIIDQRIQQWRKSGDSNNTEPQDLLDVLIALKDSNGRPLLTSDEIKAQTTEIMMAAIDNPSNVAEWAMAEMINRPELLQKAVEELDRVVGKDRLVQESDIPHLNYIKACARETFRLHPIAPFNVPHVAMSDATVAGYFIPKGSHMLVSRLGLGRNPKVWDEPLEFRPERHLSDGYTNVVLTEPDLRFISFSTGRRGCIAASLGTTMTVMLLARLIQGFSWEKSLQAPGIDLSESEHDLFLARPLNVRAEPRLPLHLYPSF

CYP79A206 = biological target: T2, CYP79A206 (Miconia microphysca, UniProt A0AA50KI25); assay: aldoxime formation by yeast microsomes, LC-MS/MS; assay type: biochemical; conditions: 1 mM substrate, 1 mM NADPH, 75 mM sodium phosphate pH 7.0, 25 °C
T2 sequence (A0AA50KI25 1-555): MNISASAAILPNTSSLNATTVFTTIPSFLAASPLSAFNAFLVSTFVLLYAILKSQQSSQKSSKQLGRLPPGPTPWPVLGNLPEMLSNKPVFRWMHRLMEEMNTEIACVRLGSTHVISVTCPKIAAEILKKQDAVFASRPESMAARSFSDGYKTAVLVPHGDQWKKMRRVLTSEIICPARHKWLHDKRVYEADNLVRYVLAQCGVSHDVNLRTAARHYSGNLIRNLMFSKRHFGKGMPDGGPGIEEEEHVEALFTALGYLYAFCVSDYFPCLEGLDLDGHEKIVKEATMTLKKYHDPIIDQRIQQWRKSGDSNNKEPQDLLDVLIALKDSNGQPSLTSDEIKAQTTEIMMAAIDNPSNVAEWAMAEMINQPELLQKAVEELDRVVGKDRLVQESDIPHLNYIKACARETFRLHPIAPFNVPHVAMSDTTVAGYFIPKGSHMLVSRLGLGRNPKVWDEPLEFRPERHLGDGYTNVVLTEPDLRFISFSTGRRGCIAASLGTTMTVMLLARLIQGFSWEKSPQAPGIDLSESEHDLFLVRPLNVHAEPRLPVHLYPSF

N[C@@H](Cc1ccc(O)cc1)C(=O)O [L-tyrosine]
aldoxime formation by yeast microsomes, LC-MS/MS (CYP79A207): microsomes containing CYP79A206 or CYP79A207 with L-phenylalanine, L-tyrosine, or L-tryptophan
aldoxime formation by yeast microsomes, LC-MS/MS (CYP79A206): microsomes containing CYP79A206 or CYP79A207 with L-phenylalanine, L-tyrosine, or L-tryptophan
